Experimental data taken from patent publication US8299073B2, “P38 MAP kinase inhibitors” (Respivert Ltd., priority 2008, dated 2012).

Sequences of proteins named here, by UniProt entry; tags and fusion partners are left off.
UniProt Q16539, whole entry: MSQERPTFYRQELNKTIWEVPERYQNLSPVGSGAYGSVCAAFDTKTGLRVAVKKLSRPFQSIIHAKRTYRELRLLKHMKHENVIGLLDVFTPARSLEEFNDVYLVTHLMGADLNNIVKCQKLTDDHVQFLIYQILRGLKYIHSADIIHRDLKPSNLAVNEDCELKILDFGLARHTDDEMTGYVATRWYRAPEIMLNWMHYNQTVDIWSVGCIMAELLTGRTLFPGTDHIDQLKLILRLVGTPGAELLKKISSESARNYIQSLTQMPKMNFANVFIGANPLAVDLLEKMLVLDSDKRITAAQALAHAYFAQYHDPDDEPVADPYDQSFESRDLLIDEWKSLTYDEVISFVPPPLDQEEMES

Molecular target: T1, p38 MAPK alpha (MAPK14: Invitrogen) (Homo sapiens, UniProt Q16539)
T1 construct: purchased Invitrogen
Experiment: Enzyme inhibition assay (FRET, Z-LYTE), p38 MAPK alpha, via activation of MAPKAP-K2
Type: biochemical
Settings: read-out: IC50 values p38α enzyme

With COCC(=O)Nc1cnccc1COc1ccc(NC(=O)Nc2cc(C(C)(C)C)nn2-c2ccc(C)cc2)c2ccccc12 [Example 35, N-(4-((4-(3-(3-tert-Butyl-1-p-tolyl-1H-pyrazol-5-yl)ureido)naphthalen-1-yloxy)methyl)pyridin-3-yl)-2-methoxyacetamide] the IC50 was under 10 nM.
